Tests used:
[1] = test system: P. aeruginosa strain CFS-1292; assay: Checkerboard assay (FICI) with antibiotics, P. aeruginosa; details: P. aeruginosa CFS-1292, CAA + […] human serum
human red blood cells = assay: Hemolytic activity, minimal hemolytic concentration (MHC); type: cell-based; details: human red blood cells
[2] = Solubility test (GenScript); type: physicochemical; details: water
Description: All Chp peptides were synthesized by GenScript, NJ, USA with capping [N-terminal acetylation (Ac) and C-terminal amidation (NH2)] on a fee-for-service basis. GenScript assessed the purity of each peptide by high performance liquid chromatography (HPLC) and mass spectrometry (MS). GenScript also performed a solubility test for all peptides and determined the net peptide content (NPC %) using a Vario MICRO Organic Elemental Analyzer. […] All additional peptides were commercial products purchased from either GenScript or Anaspec.

[3] = Stability assessment: fold change in MIC after incubation in 100% human serum; type: in vitro ADME; details: for stability (fold change in MIC) in 100% human serum: 37° C., 1 hour, and 2 hours; for Fold change in MIC: incubation in 100% human serum at 37° C.
[4] = Stability assessment in rabbit serum; type: in vitro ADME; details: incubation in rabbit serum at 37° C.
[5] = Stability assessment in 100% CAA; type: in vitro ADME; details: incubation in 100% CAA at 37° C.

Substance	Antibiotic MIC in checkerboard ([1]; combined with Chp2-M1) [µg/mL]	Antibiotic MIC in checkerboard ([1]; combined with Chp2) [µg/mL]	Antibiotic MIC in checkerboard ([1]; combined with Chp6-M1) [µg/mL]	Minimal hemolytic concentration (MHC) (human red blood cells) [µg/mL]	solubility [2]	stability (fold change in MIC) in 100% human serum ([3]; 10 minutes)	Fold change in MIC ([3]; 10 minutes)	Fold change in MIC ([3]; 1 hour)	Fold change in MIC ([3]; 2 hours)	Fold Change in MIC (rabbit serum) ([4]; 10 min.)	Fold Change in MIC (rabbit serum) ([4]; 1 hour)	Fold Change in MIC (rabbit serum) ([4]; 2 hours)	Fold change in MIC (100% CAA) ([5]; 10 min.)	Fold change in MIC (100% CAA) ([5]; 1 hour)	Fold change in MIC (100% CAA) ([5]; 2 hours)
Gentamicin	0.03125	0.5	0.03125	–	–	–	–	–	–	–	–	–	–	–	–
MAEQYELSQEQSEQLFSETALQMHEQNELQEIMQGGIEF [Chp5]	–	–	–	>128	suspended in DMSO	adequately stable	1	2	2	–	–	–	–	–	–
MKKRTKALLPYAVFIILSFQLTLLTALFMYYHYTF [Lvp2]	–	–	–	8	suspended in DMSO	adequately stable	1	1	0.25	–	–	–	–	–	–
MLTVWSDTPTIKRRKDMYRKRMSRKKSKKVFAKTAMKVNKRNHVKPMRGGYRI [Gkh3]	–	–	–	>128	–	adequately stable	1	1	1	1	1	1	1	0.5	0.5
MMKYRKKMSAKSSRKQFTKGAMKVKGKNFTKPMRGGIRL [Unp5]	–	–	–	>128	–	adequately stable	1	1	4	1	1	0.5	1	1	0.5
MRKRMSKRVDKKVFRRTAASAKKINIDPKIYRGGIRL [Osp1]	–	–	–	>128	–	adequately stable	1	0.5	1	1	1	0.5	2	1	0.5
MRLKMARRRYRLPRRRSRRLFSRTALRMHPRNRLRRIMRGGIRF	–	–	–	>128	–	adequately stable	1	1	2	1	2	2	1	0.5	0.5
MRRKKMSRGKSKKLFRRTAKRVHRKNLRARPMRGGIRM [AVQ206]	–	–	–	>128	–	adequately stable	1	1	1	1	1	1	1	2	0.5
MRRKVKNTKRHQWRLTHSARSIKRANIMPSNPRGGRRF	–	–	–	>128	–	adequately stable	1	1	1	1	1	1	1	1	0.5
MRRPRKMNYKKSKRMFSRTAARTHRKNSLRGSRPMRGGIRL [Gkh1]	–	–	–	>128	–	adequately stable	1	0.5	1	1	0.5	0.5	1	0.5	0.5
MRRRRLSRRTSRRFFRKGLKVRRRNLRARPMRGGFRI [Unp2]	–	–	–	>128	–	adequately stable	1	2	1	1	2	2	1	1	1
MRRYNVNKGKSAKKFRKQVSKTKVANLRSNPMRGGWRL [AGT915]	–	–	–	>128	–	adequately stable	1	1	0.5	1	1	1	1	2	0.5
MRRYNVNKGKSAKKFRKQVSKTKVANLRSNPMRGGWRL [Unp6]	–	–	–	>128	–	adequately stable	1	1	1	1	1	1	1	1	0.5
MSKKASRKSFTKGAVKVHKKNVPTRVPMRGGIRL [Gkh2]	–	–	–	>128	–	adequately stable	1	0.5	2	1	1	1	1	0.5	0.5
MSKKRSRMSRRRSKKLFSKTALRTKSVNTRPPMRGGFRF [Chp8]	–	–	–	>128	–	adequately stable	1	1	1	1	1	1	1	0.5	0.5
MSLRRHKLSRKASKRIFRKGASRTKTLNTRATPMRGGFRI [Chp9]	–	–	–	>128	–	adequately stable	1	0.5	0.5	1	1	1	1	0.5	0.5
MSSTLCRWAVKALRCTRVYKEFIWKPLVALSYVTLYLLSSVFLSQLSYPIGSWAV [Lvp1]	–	–	–	–	suspended in DMSO	–	–	–	–	1	1	1	1	0.5	0.5
MTKRDIEYRKALGLNPSEPLPKIVGAVTRHGATLKRPRVTALAR [SBR77]	–	–	–	>128	–	adequately stable	1	4	1	1	1	1	1	1	1
MVRRRRLRRRISRRIFRRTVARVGRRRRSFRGGIRF [Chp1]	–	–	–	>128	–	adequately stable	1	1	1	1	2	2	1	1	1

Reference: patent US20220401514A1, “ANTIMICROBIAL, BACTERIOPHAGE-DERIVED POLYPEPTIDES AND THEIR USE AGAINST GRAM-NEGATIVE AND ACID-FAST BACTERIA” (CONTRAFECT CORPORATION, priority 2019, published 2022)
